CDK5 inh: inhibitors of human CDK5/p35 kinase, primary screen, biochemical, single concentration. Cyclin-dependent kinase 5 (Homo sapiens) + Cyclin-dependent kinase 5 activator 1 (Homo …. 330,000 tested, 0.01% active. Recombinant CDK5/p35, ADP-Glo luminescence, 60 min. inhibition, % at 10 µM;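 active = highest replicate inhibition of at least 50% and at least 75% of replicates reaching 50%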;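 note: plate controls were DMSO neutral control for no effect and GW8510 at 10 µM for full effect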
C2C12 statin: suppressors of statin myotoxicity in C2C12 myotubes, primary screen, cell-based, single point, plate reader. C2C12 myotubes + simvastatin, ATP luminescence, 48 h; scaled: DMSO 0, geranylgeraniol control 100. rescue of ATP level, % at 7.49 µM. 330,000 tested, 0.78% active. AID 602340, 2012;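 active = mean ATP rescue above about 67%, or every replicate alone reaching that limit, limit read from the data, passing the limit was not always enough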;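 note: myotubes were challenged with 10 µM simvastatin during compound exposure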
Yeast UUG start: alters start codon recognition fidelity in yeast. S. cerevisiae UUG-firefly luciferase reporter, luminescence/redox ratio. activity score, % at 18.7 µM. 0.13% of 350,000 active. AID 602363;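 active = replicate mean at a twofold rise or more, about +100% in these data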;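 also: firefly luciferase made from a UUG start codon reports start codon fidelity; reporter light over untreated wells divided by growth signal over untreated wells; some hits fall short of that in this replicate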
Rtt109 HAT inh: inhibitors of C. albicans Rtt109/Vps75 HAT, primary screen, biochemical, ThioGlo CoA-SH fluorescence, plate reader | Histone acetyltransferase RTT109 (Candida albicans (strain SC5314 / ATCC MYA-2876)), … | purified Rtt109/Vps75, 4 h | inhibition, % at 34.9 µM | 330,000 tested, 0.16% active | AID 540336, 2011;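 active = inhibition of at least 50% in every replicate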
Cneo AK release: Cryptococcus neoformans cell lysis inducers, primary screen, AK release luminescence, single concentration. C. neoformans lysis, adenylate kinase release luminescence, 4 h; normalised: neutral wells 0, clomiphene wells 100. lysis activity, % at 15 µM. 360,000 tested, 0.2% active. AID 651654, 2012;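 active = mean lysis activity across replicates of at least 80%, whatever share of replicates individually reach that level; inactive = mean lysis activity below 80%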
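Material – Cryptococcus neoformans yeast cells · Quantity – 5 × 10^6 yeast cells/mL · Buffer or medium – YPD medium · Compound – single dose · Timing – 4 h static compound exposure, 37 °C, read 1 h post-reagent · Signal – adenylate kinase release luminescence · Read-out basis – lysis from increased AK signal · Benchmarks – Clomiphene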
Numbers without * were called inactive; / = not tested or not shown. The list is not random: actives were taken first. Their share in the collection is about 1%.

Fields: Rtt109 HAT inh, Cneo AK release, C2C12 statin, CDK5 inh, Yeast UUG start
1	CCOP(=O)(OCC)c1nc(-c2cccc3ccccc23)oc1NCCc1ccc(OC)cc1
→ -21, 1, 92*, 1, 13
2	COc1ccc2c(c1)c(C(=O)OCCN(C)C)c(C)n2C
→ 7, -1, 105*, -1, -17
3	COCCNC(=O)c1cc2c(c(-c3cccc(-c4cccc(F)c4)c3)n1)[C@H](CCO)N([S@@](=O)C(C)(C)C)C2
→ /, -7, -9, /, /
4	COc1cc(SC)ccc1C(=O)Nc1ccc(OCC(=O)N2CCOCC2)cc1
→ 4, -7, -6, -1, -21
5	COc1ccccc1C(=O)Nc1ccc(OCC(=O)N2CC(C)CC(C)C2)cc1 (configuration not stated)
→ 53*, -10, 6, 0, -5
6	OC(CSc1c(Cl)cccc1Cl)CN1CCN(c2ccccc2F)CC1 (configuration not stated)
→ -6, 0, 172*, -1, -13
7	c1ccc(Nc2nc(-c3cccs3)cs2)nc1
→ 6, -4, 148*, 0, -42
8	c1ccc(Nc2nc(-c3cccnc3)cs2)nc1
→ -1, -5, /, 1, -22
9	Fc1ccc(-c2csc(Nc3ccccn3)n2)cc1
→ -1, 0, 154*, -2, -36
10	Cc1cccc(Nc2nc(-c3cccs3)cs2)n1
→ -4, -19, 11, 1, -26
11	Cc1cccc(S(=O)(=O)N[C@@H]2CC[C@@H](CCn3cc(-c4ccccn4)nn3)O[C@@H]2CO)c1
→ /, -3, 3, /, -10
12	O=C1/C(=C/c2ccc(F)cc2)SC(=S)N1CC(=O)N1CCCCC1c1cccnc1 (configuration not stated)
→ 53*, -7, 0, -2, 3
13	COc1ccc(CNC(=O)C[C@H]2C=C[C@H](NC(=O)CN(C)C)[C@@H](CO)O2)cc1
→ /, 1, 4, /, -12
14	O=C(Cn1cnc2c(nnn2Cc2ccc(F)cc2)c1=O)NC1CCCC1
→ 11, -1, 141*, -2, -17
15	C[C@H](O)C#Cc1cnc2c(c1)C(=O)N([C@@H](C)CO)C[C@@H](C)[C@H](CN(C)C(=O)c1ccccc1)O2
→ /, -3, -3, /, -5
16	O=C(Nc1ccc(F)cc1)N[C@H]1CC[C@H](CC(=O)N2CCOCC2)O[C@@H]1CO
→ /, -1, -2, /, -11
17	CN1CCN(C(=O)C[C@@H]2C[C@@H]3c4cc(NC(=O)Nc5ccc(F)cc5)ccc4O[C@@H]3[C@@H](CO)O2)CC1
→ /, 11, 10, /, -7
18	N#Cc1c(Nc2ccccc2Cl)s[nH]c1=O
→ 109*, /, /, -1, /
19	N#Cc1c(Nc2ccccc2)s[nH]c1=O
→ 111*, /, /, 1, /
20	CCCN1C[C@H](C)[C@H](OC)CN(C)C(=O)c2ccc(NC(=O)c3ccc(F)cc3)cc2OC[C@@H]1C
→ /, 1, -2, /, /

Record cards, as listed above. Values in the order: Rtt109 HAT inh, Cneo AK release, C2C12 statin, CDK5 inh, Yeast UUG start
O=C(Cn1cnc2c(nnn2Cc2ccc(F)cc2)c1=O)NC1CCCC1 in the list: 11, -1, 141*, -2, -17
COCCNC(=O)c1cc2c(c(-c3cccc(-c4cccc(F)c4)c3)n1)[C@H](CCO)N([S@@](=O)C(C)(C)C)C2 in the list: /, -7, -9, /, /
C[C@H](O)C#Cc1cnc2c(c1)C(=O)N([C@@H](C)CO)C[C@@H](C)[C@H](CN(C)C(=O)c1ccccc1)O2 in the list: /, -3, -3, /, -5
c1ccc(Nc2nc(-c3cccs3)cs2)nc1 in the list: 6, -4, 148*, 0, -42
COc1cc(SC)ccc1C(=O)Nc1ccc(OCC(=O)N2CCOCC2)cc1 in the list: 4, -7, -6, -1, -21

Continuation:
Fields: Rtt109 HAT inh, Cneo AK release, C2C12 statin, CDK5 inh, Yeast UUG start
21	CCC1=C(c2ccc(C)cc2)S(=O)(=O)N=C1N1CCC(C(=O)NCCCN2CCCCC2C)CC1 (configuration not stated)
→ 7, 1, 115*, 0, 2
22	CN(C)c1nc(Oc2ccc(C(=O)OCC(=O)Nc3ccccc3)cc2)nc(N(C)C)n1
→ 11, 6, 119*, 0, -1
23	CCOC(=O)c1ccc(Oc2nc(OC)nc(N(C)C)n2)cc1
→ 18, -1, 6, 0, -4
24	C[C@@H]1CN([C@@H](C)CO)C(=O)c2c(c3ccccc3n2C)-c2ccccc2CO[C@@H]1CN(C)S(=O)(=O)c1ccc(Cl)cc1
→ /, 100*, 53, /, 25
25	COc1cccc(S(=O)(=O)N(C)C[C@H]2OCc3ccccc3-c3c(n(C)c4ccccc34)C(=O)N([C@@H](C)CO)C[C@H]2C)c1
→ /, -2, 69*, /, /
26	COc1cccc(S(=O)(=O)N(C)C[C@@H]2OCc3ccccc3-c3c(n(C)c4ccccc34)C(=O)N([C@@H](C)CO)C[C@@H]2C)c1
→ /, 1, 25, /, /
27	COc1ccc(NC(=O)N(C)C[C@H]2OCc3ccccc3-c3c(n(C)c4ccccc34)C(=O)N([C@H](C)CO)C[C@@H]2C)cc1
→ /, 111*, /, /, 24
28	C[C@@H]1CN([C@H](C)CO)C(=O)c2c(c3ccccc3n2C)-c2ccccc2CO[C@H]1CN(C)S(=O)(=O)c1ccc(Cl)cc1
→ /, 107*, 29, /, 22
29	COc1ccc(NC(=O)N(C)C[C@H]2OCc3ccccc3-c3c(n(C)c4ccccc34)C(=O)N([C@@H](C)CO)C[C@@H]2C)cc1
→ /, -2, /, /, 21
30	C[C@@H]1CCCCO[C@@H](CN(C)C(=O)c2ccncc2)[C@H](C)CN([C@@H](C)CO)C(=O)c2cc(NS(=O)(=O)c3ccc(F)cc3)ccc2O1
→ /, -1, /, /, -1
31	CNC[C@H]1Oc2ccc(NC(=O)CCC(F)(F)F)cc2CC(=O)N([C@@H](C)CO)C[C@H]1C
→ /, -7, 4, /, 1
32	CCc1c(O)nc(SC2CC(=O)N(c3ccccc3)C2=O)[nH]c1=O (configuration not stated)
→ 0, 0, 106*, 2, 1
33	Cc1c(O)nc(SC2CC(=O)N(c3ccccc3)C2=O)[nH]c1=O (configuration not stated)
→ -6, -2, /, 1, -11
34	COc1ccccc1N1CCN(C(=O)c2ccc(S(=O)(=O)N3CCCCCC3)cc2)CC1
→ 6, 6, 127*, -2, 11
35	CCOc1ccccc1N1CCN(C(=O)c2ccncc2)CC1
→ 51*, /, /, 0, /
36	COc1ccc(NC(=O)N(C)C[C@H]2Oc3c(NC(=O)c4nc5ccccc5s4)cccc3C(=O)N([C@H](C)CO)C[C@@H]2C)cc1
→ /, -4, /, /, 6
37	Cc1noc(C)c1NC(=O)Nc1ccc2c(c1)C(=O)N(C)[C@@H]1CC[C@H](CC(=O)N[C@H]3CCN(Cc4ccccc4)C3)O[C@@H]1CO2
→ /, 100*, 47, /, /
38	Cc1noc(C)c1NC(=O)Nc1ccc2c(c1)C(=O)N(C)[C@H]1CC[C@H](CC(=O)N[C@H]3CCN(Cc4ccccc4)C3)O[C@H]1CO2
→ /, 86*, -9, /, /
39	CCOC(=O)c1nnc(-c2ccc(C)cc2)nc1Sc1ccc(Cl)cc1
→ -2, -2, 109*, 1, -19
40	CCOC(=O)c1nnc(-c2ccc(C)cc2)nc1Sc1ccccc1Cl
→ 15, 0, -3, 1, -12
41	C[C@H]1CN([C@@H](C)CO)C(=O)c2cc(-c3cncnc3)cnc2O[C@@H]1CN(C)C(=O)Cc1cccnc1
→ /, 4, 16, /, -2
42	O=C([C@H]1[C@H](CO)[C@H]2Cn3c(ccc(-c4ccc(F)cc4)c3=O)[C@H]2N1Cc1cocn1)N1CCOCC1
→ /, -3, -2, /, /
43	O=C(NCC(c1cccnc1)N1CCN(c2ccc(F)cc2)CC1)c1ccc2c(c1)OCO2 (configuration not stated)
→ 8, 0, 121*, 1, -13

Source: PubChem
